Results on six compounds are retold here after patent publication US9884868B2, “TGF-beta inhibitors” (Rigel Pharmaceuticals, Inc., priority 2015, dated 2018).

Amino acid sequences for entries named in this document (tags omitted). Residues count along the entry.
UniProt P36897, 34-503 T204D: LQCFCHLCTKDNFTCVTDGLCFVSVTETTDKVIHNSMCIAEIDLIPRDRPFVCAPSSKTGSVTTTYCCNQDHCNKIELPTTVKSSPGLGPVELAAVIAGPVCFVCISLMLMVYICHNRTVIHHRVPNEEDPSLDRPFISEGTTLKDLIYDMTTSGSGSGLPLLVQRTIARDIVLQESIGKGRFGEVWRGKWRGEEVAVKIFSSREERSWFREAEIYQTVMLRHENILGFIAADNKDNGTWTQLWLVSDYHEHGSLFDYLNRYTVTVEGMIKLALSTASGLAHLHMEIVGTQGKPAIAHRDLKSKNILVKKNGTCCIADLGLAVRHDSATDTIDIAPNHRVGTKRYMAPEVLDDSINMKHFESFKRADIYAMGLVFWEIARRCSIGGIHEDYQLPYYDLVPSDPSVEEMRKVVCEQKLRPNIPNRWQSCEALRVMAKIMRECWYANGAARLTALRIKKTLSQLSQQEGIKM

The target in the assay is HIS-TGF-βR1 T204D (Homo sapiens (Human), UniProt P36897, T204D). As to the kind of experiment: HTRF probe displacement assay with HIS-TGF-βR1 T204D. The following applies: read-out: TGFbr1 IC50, 1 nM HIS-TGF-βR1 T204D, 1 hour at room temperature.

As for `N#CCN1CC(n2cnc(-c3ccc(F)cc3)c2-c2ccc3ncc(C#N)n3n2)C1` [Example 194′, 6-(1-(1-(cyanomethyl)azetidin-3-yl)-4-(4-fluorophenyl)-1H-imidazol-5-yl)imidazo[1,2-b]pyridazine-3-carbonitrile], the half-inhibitory concentration (IC50) stood at 10.2 nM. The figure for `N#Cc1cnc2ccc(-c3c(-c4ccc(F)cc4)ncn3C3CC(F)(F)C3)nn12` [3′, 6-(1-(3,3-difluorocyclobutyl)-4-(4-fluorophenyl)-1H-imidazol-5-yl)imidazo[1,2-b]pyridazine-3-carbonitrile] is 14.2 nM; for `NC(=O)c1cnc2ccc(-c3c(-c4ccc(F)cc4)ncn3C3CC(F)C3)nn12` (stereo not drawn) [127′, 6-(1-(3-fluorocyclobutyl)-4-(4-fluorophenyl)-1H-imidazol-5-yl)imidazo[1,2-b]pyridazine-3-carboxamide] it is 4.9 nM. Turning to `CC(=O)N1CCn2c(nc(-c3ccc(F)cc3)c2-c2ccc3ncc(C(N)=O)n3c2)C1` [292′, 6-(7-acetyl-2-(4-fluorophenyl)-5,6,7,8-tetrahydroimidazo[1,2-a]pyrazin-3-yl)imidazo[1,2-a]pyridine-3-carboxamide], the IC50 was determined as 40.8 nM. The figure for `N#Cc1cnc2ccc(-c3c(-c4ccc(F)cc4C(F)(F)F)ncn3CC(F)F)nn12` [261′, 6-(1-(2,2-difluoroethyl)-4-(4-fluoro-2-(trifluoromethyl)phenyl)-1H-imidazol-5-yl)imidazo[1,2-b]pyridazine-3-carbonitrile] is 89.4 nM; for `N#Cc1cnc2ccc(-c3c(-c4cccc(-c5ccccc5)c4)ncn3CC(F)F)nn12` [257′, 6-(4-([1,1′-biphenyl]-3-yl)-1-(2,2-difluoroethyl)-1H-imidazol-5-yl)imidazo[1,2-b]pyridazine-3-carbonitrile] it is 64.2 nM.
